Data from PMC4538835 (Nucleic Acids Research, 2015).

Target: T1, MED25 ACID/PTOV domain (Homo sapiens, UniProt Q71SY5)
T1 sequence (Q71SY5 391-548): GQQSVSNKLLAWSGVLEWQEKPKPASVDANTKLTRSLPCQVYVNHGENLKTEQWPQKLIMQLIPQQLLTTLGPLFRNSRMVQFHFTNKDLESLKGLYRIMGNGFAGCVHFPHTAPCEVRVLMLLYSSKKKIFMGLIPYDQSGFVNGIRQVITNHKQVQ
Assay: Fluorescence polarization
Type: binding
Details: FP Kd ratio, mutant vs wild-type ERM38–68

fold drop in affinity relative to wild-type ERM38–68: 75 fold
SMILES: CC[C@H](C)[C@H](NC(=O)[C@H](C)NC(=O)[C@H](CC(N)=O)NC(=O)c1ccc(C(=O)[O-])c(-c2c3ccc(=[N+](C)C)cc-3oc3cc(N(C)C)ccc23)c1)C(=O)NCC(=O)N[C@@H](CO)C(=O)N[C@@H](CCSC)C(=O)N[C@@H](CC(=O)O)C(=O)N[C@@H](CC(C)C)C(=O)N[C@@H](C)C(=O)N[C@@H](Cc1c[nH]cn1)C(=O)N[C@@H](CC(=O)O)C(=O)N[C@@H](CO)C(=O)N[C@@H](CCC(=O)O)C(=O)N[C@@H](CCC(=O)O)C(=O)N[C@@H](CC(C)C)C(=O)N[C@@H](C)C(=O)N[C@@H](CCC(N)=O)C(=O)N[C@@H](CC(=O)O)C(=O)N[C@@H](CC(C)C)C(=O)N[C@@H](CO)C(=O)N[C@@H](CCC(N)=O)C(=O)N[C@@H](CC(C)C)C(=O)N[C@@H](CCC(N)=O)C(=O)N[C@@H](CCC(=O)O)C(=O)N[C@@H](C)C(=O)N[C@@H](C)C(=O)N[C@@H](CC(C)C)C(=O)N[C@@H](C)C(=O)N[C@@H](CCC(=O)O)C(=O)N[C@@H](C)C(=O)N[C@@H](CCC(N)=O)C(=O)N[C@H](C(=O)N1CCC[C@H]1C(=O)N[C@@H](CC(=O)O)C(=O)N[C@@H](CC(=O)O)C(=O)N[C@@H](CCC(=O)O)C(=O)N[C@@H](CCC(N)=O)C(=O)O)C(C)C [ERM38–68 F47A/W57A]
